Measured values as given in PubChem BioAssay (NCI).
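48-hour exposure; five concentrations; linearly interpolated endpoints. At the GI50, growth is halved. TGI is the concentration that stops growth completely.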

Columns and labels:
Test in all cases: NCI-60 cell line screen, 48 h
[1] = test system: MCF7 breast
[2] = test system: NCI-H23 lung
[3] = test system: CAKI-1 renal
[4] = test system: SR leukemia
[5] = test system: NCI-H522 lung
[6] = test system: U251 CNS
[7] = test system: EKVX NSCLC
[8] = test system: SK-MEL-5 melanoma
[9] = test system: MOLT-4 leukemia
[10] = test system: HOP-92 NSCLC
[11] = test system: TK-10 renal
[12] = test system: RPMI-8226 leukemia
[13] = test system: MALME-3M melanoma
[14] = test system: LOX IMVI melanoma
[15] = test system: HOP-62 NSCLC
[16] = test system: MDA-MB-435
[17] = test system: NCI-H460 lung
[18] = test system: SNB-19 CNS
[19] = test system: HL-60(TB) leukemia
[20] = test system: NCI/ADR-RES ovarian
[21] = test system: SN12C renal
[22] = test system: NCI-H226 lung
[23] = test system: HT29 colon
[24] = test system: OVCAR-5 ovarian
[25] = test system: HCC-2998 colon
[26] = test system: 786-0 renal
[27] = test system: M14 melanoma
[28] = test system: SF-295 CNS
[29] = test system: KM12 colon
[30] = test system: SK-MEL-28 melanoma
[31] = test system: CCRF-CEM leukemia
[32] = test system: SNB-75 CNS
[33] = test system: K-562 leukemia
[34] = test system: OVCAR-4 ovarian
[35] = test system: BT-549 breast
[36] = test system: HCT-116 colon
[37] = test system: COLO 205 colon
[38] = test system: UACC-257 melanoma
[39] = test system: SF-268 CNS
[40] = test system: IGROV1 ovarian
[41] = test system: HCT-15 colon
[42] = test system: OVCAR-8 ovarian
[43] = test system: A549 NSCLC
[44] = test system: ACHN renal
[45] = test system: MDA-MB-231 breast
[46] = test system: SK-MEL-2 melanoma
[47] = test system: DU-145 prostate
[48] = test system: SW-620 colon
[49] = test system: SF-539 CNS

`Cc1c(CN=[N+]=[N-])c(C)c(CN=[N+]=[N-])c(C)c1CN=[N+]=[N-]` was tested, and the GI50 [1] was 43 µM, the TGI [1] was > 100 µM and the GI50 [2] was 18.7 µM. For the same compound, the TGI [2] was 56.5 µM, the GI50 [3] was 40.9 µM and the TGI [3] was > 100 µM. The GI50 [4] was 46.1 µM, the TGI [4] was > 100 µM and the GI50 [5] was 24.2 µM. The TGI [5] was > 100 µM, the GI50 [6] was 57.6 µM and the TGI [6] was > 100 µM. The GI50 [7] was 93.4 µM, the TGI [7] was > 100 µM and the GI50 [8] was 18.7 µM. The TGI [8] was 40.2 µM, the GI50 [9] was 21.5 µM and the TGI [9] was 56.4 µM. For the same compound, the GI50 [10] was 29.4 µM, the TGI [10] was > 100 µM and the GI50 [11] was > 100 µM. For the same compound, the TGI [11] was > 100 µM, the GI50 [12] was 54 µM and the TGI [12] was > 100 µM. For the same compound, the GI50 [13] was 57.3 µM, the TGI [13] was > 100 µM and the GI50 [14] was 37.7 µM. For the same compound, the TGI [14] was > 100 µM, the GI50 [15] was 55.6 µM and the TGI [15] was > 100 µM. The GI50 [16] was 52.4 µM, the TGI [16] was > 100 µM and the GI50 [17] was 50.6 µM. For the same compound, the TGI [17] was > 100 µM, the GI50 [18] was > 100 µM and the TGI [18] was > 100 µM. The GI50 [19] was 28.3 µM, the TGI [19] was 88.2 µM and the GI50 [20] was 56.7 µM. For the same compound, the TGI [20] was > 100 µM, the GI50 [21] was 72.6 µM and the TGI [21] was > 100 µM. For the same compound, the GI50 [22] was 36.9 µM, the TGI [22] was > 100 µM and the GI50 [23] was 28.5 µM. For the same compound, the TGI [23] was > 100 µM, the GI50 [24] was > 100 µM and the TGI [24] was > 100 µM. The GI50 [25] was 33.2 µM, the TGI [25] was 78 µM and the GI50 [26] was 83.2 µM. The TGI [26] was > 100 µM, the GI50 [27] was 81.3 µM and the TGI [27] was > 100 µM. The GI50 [28] was 56.9 µM, the TGI [28] was > 100 µM and the GI50 [29] was 39.5 µM. For the same compound, the TGI [29] was > 100 µM, the GI50 [30] was > 100 µM and the TGI [30] was > 100 µM. For the same compound, the GI50 [31] was 29.9 µM, the TGI [31] was > 100 µM and the GI50 [32] was 17.8 µM. For the same compound, the TGI [32] was > 100 µM, the GI50 [33] was 24.8 µM and the TGI [33] was > 100 µM. The GI50 [34] was 44.1 µM, the TGI [34] was > 100 µM and the GI50 [35] was 35.9 µM. For the same compound, the TGI [35] was > 100 µM, the GI50 [36] was 34.8 µM and the TGI [36] was > 100 µM. The GI50 [37] was 41 µM, the TGI [37] was > 100 µM and the GI50 [38] was 83.5 µM. The TGI [38] was > 100 µM, the GI50 [39] was 10.6 µM and the TGI [39] was 75.3 µM. The GI50 [40] was 45.6 µM, the TGI [40] was > 100 µM and the GI50 [41] was 37.8 µM. For the same compound, the TGI [41] was > 100 µM, the GI50 [42] was 40 µM and the TGI [42] was > 100 µM. For the same compound, the GI50 [43] was 38 µM, the TGI [43] was > 100 µM and the GI50 [44] was > 100 µM. For the same compound, the TGI [44] was > 100 µM, the GI50 [45] was 41.2 µM and the TGI [45] was > 100 µM. The GI50 [46] was 32.9 µM, the TGI [46] was > 100 µM and the GI50 [47] was 32.6 µM. The TGI [47] was > 100 µM, the GI50 [48] was 33.8 µM and the TGI [48] was > 100 µM. For the same compound, the GI50 [49] was 66.2 µM and the TGI [49] was > 100 µM.
